Measured values taken from PubChem BioAssay AID455 (Sanford-Burnham Center for Chemical Genomics, 2006).
This is a selection; strong and weak results do not stand in their true shares. Activity calls are given as the source filed them.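 Rule for the calls: active = a compound raising TNF-alpha-driven VCAM-1 surface staining, with its hit status upheld on visual or statistical review; inactive = the rest, including hits rejected on review.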

Test: enhancers of VCAM-1 display on endothelial cells, cell-based, plate reader, pooled HUVEC, TNFa stimulus (AID 455)
Settings: HUVEC TNFa-induced VCAM-1 immunofluorescence

Row | SMILES | outcome
1 | Fc1ccccc1NC1CCN(Cc2ccccc2)CC1 | inactive
